The values below come from BindingDB's records for PubMed 9686407 (Sri International, 1998).

The chains behind the UniProt entries cited, without tags or fusion partners. Where a name states a change or a piece, a line headed by the entry shows the natural chain unless it says otherwise. A line that says so, or that is headed by a name, gives the form on record, which may keep a tag or linker.
UniProt P35372, whole entry: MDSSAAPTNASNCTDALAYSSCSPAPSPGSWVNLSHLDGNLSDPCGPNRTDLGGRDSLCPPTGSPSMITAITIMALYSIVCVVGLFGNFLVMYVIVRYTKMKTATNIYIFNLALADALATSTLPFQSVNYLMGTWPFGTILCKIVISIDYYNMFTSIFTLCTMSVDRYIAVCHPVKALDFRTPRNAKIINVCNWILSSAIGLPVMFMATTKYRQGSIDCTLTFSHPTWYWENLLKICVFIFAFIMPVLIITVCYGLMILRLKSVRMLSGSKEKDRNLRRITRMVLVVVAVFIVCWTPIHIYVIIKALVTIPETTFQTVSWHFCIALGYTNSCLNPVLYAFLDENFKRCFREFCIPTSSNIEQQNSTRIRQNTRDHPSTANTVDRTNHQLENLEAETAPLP
UniProt P35462, as listed by the source: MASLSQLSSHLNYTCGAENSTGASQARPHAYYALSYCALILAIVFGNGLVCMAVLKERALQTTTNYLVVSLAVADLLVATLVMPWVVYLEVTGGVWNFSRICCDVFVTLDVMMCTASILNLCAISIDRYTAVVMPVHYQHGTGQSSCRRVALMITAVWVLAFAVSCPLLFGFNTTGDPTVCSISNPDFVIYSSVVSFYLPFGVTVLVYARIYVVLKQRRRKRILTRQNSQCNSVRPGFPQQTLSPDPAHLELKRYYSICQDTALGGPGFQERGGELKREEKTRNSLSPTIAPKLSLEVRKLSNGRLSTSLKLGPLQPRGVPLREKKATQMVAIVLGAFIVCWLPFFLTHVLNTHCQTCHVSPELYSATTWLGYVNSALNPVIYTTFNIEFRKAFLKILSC
UniProt P14416, whole entry: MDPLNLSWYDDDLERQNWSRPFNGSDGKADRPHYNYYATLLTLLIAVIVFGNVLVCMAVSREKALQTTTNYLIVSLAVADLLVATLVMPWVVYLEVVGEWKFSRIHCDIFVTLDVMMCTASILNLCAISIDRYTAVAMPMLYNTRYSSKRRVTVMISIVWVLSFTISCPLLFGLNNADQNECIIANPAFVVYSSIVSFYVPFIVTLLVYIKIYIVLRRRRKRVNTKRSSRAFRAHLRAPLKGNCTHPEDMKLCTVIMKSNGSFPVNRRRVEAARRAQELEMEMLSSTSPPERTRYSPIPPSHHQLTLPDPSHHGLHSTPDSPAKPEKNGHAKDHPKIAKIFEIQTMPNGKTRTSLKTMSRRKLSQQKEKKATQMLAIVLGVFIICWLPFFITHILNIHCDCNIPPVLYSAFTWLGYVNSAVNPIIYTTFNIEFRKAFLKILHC
UniProt P14842, whole entry: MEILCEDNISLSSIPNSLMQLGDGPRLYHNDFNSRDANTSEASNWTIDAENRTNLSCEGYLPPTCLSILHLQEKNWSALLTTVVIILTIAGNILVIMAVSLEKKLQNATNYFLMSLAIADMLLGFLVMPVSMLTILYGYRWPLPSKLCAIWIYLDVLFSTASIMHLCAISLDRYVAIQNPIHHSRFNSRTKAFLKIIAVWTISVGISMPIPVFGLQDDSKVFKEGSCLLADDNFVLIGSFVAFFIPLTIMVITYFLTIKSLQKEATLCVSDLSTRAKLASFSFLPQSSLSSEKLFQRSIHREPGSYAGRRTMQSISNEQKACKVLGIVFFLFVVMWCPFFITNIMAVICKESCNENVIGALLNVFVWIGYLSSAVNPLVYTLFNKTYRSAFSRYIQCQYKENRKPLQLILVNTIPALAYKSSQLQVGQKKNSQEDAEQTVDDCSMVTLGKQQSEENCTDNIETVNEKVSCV
UniProt P41144: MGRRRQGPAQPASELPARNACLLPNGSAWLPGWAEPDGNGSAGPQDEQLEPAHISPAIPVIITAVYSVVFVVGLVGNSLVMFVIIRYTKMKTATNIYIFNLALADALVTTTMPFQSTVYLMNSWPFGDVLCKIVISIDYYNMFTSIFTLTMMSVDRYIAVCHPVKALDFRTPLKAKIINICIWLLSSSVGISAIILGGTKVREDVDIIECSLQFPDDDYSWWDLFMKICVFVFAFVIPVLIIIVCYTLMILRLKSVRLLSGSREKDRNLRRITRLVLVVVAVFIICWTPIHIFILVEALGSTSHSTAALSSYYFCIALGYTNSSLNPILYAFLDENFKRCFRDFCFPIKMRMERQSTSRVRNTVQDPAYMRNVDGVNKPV

Targets include Mu-type opioid receptor (Homo sapiens, UniProt P35372); D(3) dopamine receptor (Homo sapiens, UniProt P35462); D(2) dopamine receptor (Homo sapiens, UniProt P14416).
In experiment [1] the target is 5-hydroxytryptamine receptor 2A (Rattus norvegicus, UniProt P14842).
Experiment [2] has as its target T1, 5-hydroxytryptamine receptor 2C (Rattus norvegicus, UniProt P08909).
T1 sequence (P08909 whole entry): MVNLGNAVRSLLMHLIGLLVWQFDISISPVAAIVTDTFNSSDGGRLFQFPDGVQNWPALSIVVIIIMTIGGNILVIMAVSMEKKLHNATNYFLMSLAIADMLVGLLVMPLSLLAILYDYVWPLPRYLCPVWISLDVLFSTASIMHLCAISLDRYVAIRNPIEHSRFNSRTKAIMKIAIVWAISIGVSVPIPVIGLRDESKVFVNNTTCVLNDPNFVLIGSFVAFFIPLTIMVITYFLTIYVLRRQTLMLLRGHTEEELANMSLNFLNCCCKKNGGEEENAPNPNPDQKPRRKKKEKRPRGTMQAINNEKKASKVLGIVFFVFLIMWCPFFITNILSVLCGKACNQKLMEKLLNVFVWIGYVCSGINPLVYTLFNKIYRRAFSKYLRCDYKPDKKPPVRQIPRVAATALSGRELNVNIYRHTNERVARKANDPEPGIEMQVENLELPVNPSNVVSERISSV

The target of experiment [3] is Kappa-type opioid receptor (Cavia porcellus, UniProt P41144).

In general, Ki refers to a measure of affinity in units of concentration, obtained from inhibition or displacement. Read a low Ki as a stronger hold on the target.

Consider `Cc1nc2sccn2c(=O)c1CCN1CCC(=C(c2ccc(F)cc2)c2ccc(F)cc2)CC1`, for which the Ki was 4.7 nM in experiment [1] and 11 nM in experiment [2].

Take `CCC12CCN(CC3(O)CC3)C(Cc3ccc(O)cc31)C2(C)C` (stereo not drawn): the Ki at Mu-type opioid receptor was found to be 0.2 nM; in experiment [3] it was 0.1 nM. For `CCCN1CCCC(c2cccc(O)c2)C1` (stereo not drawn) [CAS_85976-54-1], the inhibitory constant (Ki) at D(3) dopamine receptor was found to be 262 nM; on D(2) dopamine receptor, 192 nM. Compound `CC[C@H](C)[C@H](NC(=O)[C@H](CCCNC(=N)N)NC(=O)[C@H](CCCNC(=N)N)NC(=O)[C@H](CC(C)C)NC(=O)[C@H](Cc1ccccc1)NC(=O)CNC(=O)CNC(=O)[C@@H](N)Cc1ccc(O)cc1)C(=O)N[C@@H](CCCNC(=N)N)C(=O)N1CCC[C@H]1C(=O)N[C@@H](CCCCN)C(=O)N[C@@H](CC(C)C)C(=O)N[C@@H](CCCCN)C(=O)O` [Dynorphin A (1-13)] gave a Ki in experiment [3] of 0.4 nM. Turning to `CC(C)C[C@H](NC(=O)[C@H](Cc1ccccc1)NC(=O)CNC(=O)CNC(=O)[C@@H](N)Cc1ccc(O)cc1)C(=O)N[C@@H](CCCN=C(N)N)C(=O)N[C@@H](CCCN=C(N)N)C(=O)N[C@@H](CCC(N)=O)C(=O)N[C@@H](Cc1ccccc1)C(=O)N[C@@H](CCCCN)C(=O)N[C@H](C(=O)N[C@H](C(=O)N[C@H](C(=O)O)[C@@H](C)O)C(C)C)C(C)C` [Dynorphin B (1-13)], the Ki in experiment [3] amounted to 0.9 nM.
